Source: patent publication US20250268906A1, “MOLECULAR GLUE COMPOUND BASED ON CEREBLON PROTEIN DESIGN AND USE THEREOF” (GLUETACS THERAPEUTICS (SHANGHAI) CO., LTD., priority 2022, published 2025)

What was measured:
Experiment in all cases: Tumor cell proliferation inhibition, CCK-8 kit, 96 h
Assay type in all cases: cell-based
Daudi cells = conditions: Homo sapiens, read-out: IC50 for inhibiting the proliferation of tumor cells, Daudi cell
Method: (§1) The tumor cells used herein were cultured in RPMI 1640 medium supplemented with 10% FBS, penicillin to a final concentration of 100 U/mL, and streptomycin to a final concentration of 100 μg/mL, at 37° C. in an incubator with 5% CO2. Prior to experimentation, all cells used were correctly identified by STR profiling, and tested negative for Mycoplasma through routine screenings.
(§2) IC50 values of the compounds of the present disclosure (including the compounds in Table 1, and Examples compounds) were measured using the Meilun Cell Counting Kit-8 kit from Dalian Meilun Biotech Co., Ltd. Assay details are as follows: the tumor cells were seeded into RPMI-1640 medium containing serum at a certain seeding density, wherein the seeding densities of the tumor cells are as follows: TMD8 cells, MM.1S cells, or Mino cells were seeded at a density of 10,000 cells/100 μL/well, and Daudi cells were seeded at a density of 4,000 cells/100 μL/well. After 24 h, 100 μL of the inoculated cells were treated with 0.5 μL of the compounds of the present disclosure (including the compounds in Table 1, and Examples compounds) in DMSO at 10 different successively decreasing concentrations (starting at a maximum concentration of 10 μM; 5-fold serial dilutions). […] The growth inhibition of the compounds of the present disclosure on the cells was plotted using Prism Graphpad software, and the IC50 values of the compounds of the present disclosure were calculated.

MM.1S cells = conditions: Homo sapiens, MM1.S, read-out: IC50 for inhibiting the proliferation of tumor cells, MM.1S cell
Method: as §1, §2

Mino cells = conditions: Homo sapiens, read-out: IC50 for inhibiting the proliferation of tumor cells, Mino cell
Method: as §1, §2

TMD8 cells = conditions: Homo sapiens, TMD8, 96 h, read-out: IC50 for inhibiting the proliferation of tumor cells, TMD8 cell
Method: as §1, §2

- pIC50 (Daudi cells): < 5.00
- pIC50 (MM.1S cells): 5.30 to 6.00
- pIC50 (Mino cells): 6.00 to 6.30
- pIC50 (TMD8 cells): 5.30 to 6.00
Structure (SMILES): Nc1cccc2c1CN(C1CCC(=O)NC1=O)C2=O (stereo not shown) [lenalidomide, reference compound]

pIC50: −log10 of the molar value.
